The source of these data is patent EP4553077A1 (Kinoteck Therapeutics Co., Ltd, priority 2022, dated 2024).

Amino acid sequences for entries named in this document (tags omitted). A change or cut given only in a name is not applied to a line headed by its entry.
UniProt Q12809: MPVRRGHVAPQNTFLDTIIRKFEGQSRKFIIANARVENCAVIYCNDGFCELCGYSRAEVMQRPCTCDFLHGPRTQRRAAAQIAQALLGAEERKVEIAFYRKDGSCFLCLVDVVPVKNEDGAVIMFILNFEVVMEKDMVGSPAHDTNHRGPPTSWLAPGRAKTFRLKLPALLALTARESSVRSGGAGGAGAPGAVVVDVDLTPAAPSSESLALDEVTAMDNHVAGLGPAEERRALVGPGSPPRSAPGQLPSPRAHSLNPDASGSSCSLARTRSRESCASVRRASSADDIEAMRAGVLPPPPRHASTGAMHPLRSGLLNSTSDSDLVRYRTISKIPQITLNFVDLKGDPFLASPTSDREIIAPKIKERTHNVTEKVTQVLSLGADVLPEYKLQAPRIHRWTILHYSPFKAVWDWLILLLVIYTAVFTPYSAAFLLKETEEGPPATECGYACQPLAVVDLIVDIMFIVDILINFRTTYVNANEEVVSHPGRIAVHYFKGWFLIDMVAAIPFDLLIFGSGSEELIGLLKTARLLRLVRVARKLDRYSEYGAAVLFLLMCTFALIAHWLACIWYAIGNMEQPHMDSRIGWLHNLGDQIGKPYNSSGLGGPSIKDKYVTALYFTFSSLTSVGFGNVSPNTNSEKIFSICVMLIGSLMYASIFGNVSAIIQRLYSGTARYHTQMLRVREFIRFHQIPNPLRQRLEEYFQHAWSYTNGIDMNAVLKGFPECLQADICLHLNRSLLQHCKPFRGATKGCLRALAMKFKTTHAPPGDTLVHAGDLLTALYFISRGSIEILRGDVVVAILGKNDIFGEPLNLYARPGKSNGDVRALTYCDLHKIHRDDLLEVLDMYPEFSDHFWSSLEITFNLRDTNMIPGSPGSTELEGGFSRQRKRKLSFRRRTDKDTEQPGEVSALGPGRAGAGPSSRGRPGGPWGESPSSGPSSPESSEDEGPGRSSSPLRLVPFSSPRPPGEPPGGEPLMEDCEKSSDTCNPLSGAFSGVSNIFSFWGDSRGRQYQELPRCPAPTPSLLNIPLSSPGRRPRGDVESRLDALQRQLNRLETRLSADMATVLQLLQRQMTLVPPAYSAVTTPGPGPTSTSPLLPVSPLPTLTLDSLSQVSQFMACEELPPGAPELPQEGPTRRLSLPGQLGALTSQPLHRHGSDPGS

This experiment deals with hERG (Homo sapiens, UniProt Q12809). Kind of experiment: Manual patch clamp, hERG channel current in HEK-293 cells.

For the compound `C=C(C)C(=O)Nc1ccc(-c2c(-c3ccc(Oc4nccc(C)n4)c(F)c3)c3c(N)ncnc3n2C)cc1` [Control compound I, reference compound], it took 6.05 µM to reach half-maximal inhibition (IC50).
